# Apparent affinities of Ab-14 variants for a coronavirus HR2 peptide

All variants were tested on one target, the spike HR2 peptide PDVDLGDISGINAS (SARS-CoV-2).

The variants keep the light chain, the linker and the frameworks of Ab-14 (scFv order VH, the linker GGGGSGGGGSGGGGS, VL).
VH: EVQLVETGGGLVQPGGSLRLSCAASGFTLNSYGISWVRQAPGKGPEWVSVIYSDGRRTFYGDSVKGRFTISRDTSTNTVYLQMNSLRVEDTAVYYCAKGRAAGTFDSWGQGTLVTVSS
VL: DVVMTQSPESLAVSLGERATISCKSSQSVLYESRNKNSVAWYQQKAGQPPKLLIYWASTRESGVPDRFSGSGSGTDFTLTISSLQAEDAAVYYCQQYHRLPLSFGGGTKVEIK

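These sequences belong to a second round, designed from the earlier measurements on random variants of the parent. Their group label is 14H_En_Gibbs (En: ensemble of fine-tuned language models; Gibbs: Gibbs sampling). AlphaSeq pools MATa yeast showing the antibodies with MATalpha yeast showing the peptide. Binding brings cells together so that they mate, and sequencing counts the barcode pairs among the diploids. A regression on co-assayed BCL2-family reference pairs converts the normalised counts of each replicate to an apparent Kd. There are six technical replicates.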

The parent's heavy chain CDRs are GFTLNSYGIS, VIYSDGRRTFYGDSVK, GRAAGTFDS; each variant's own CDRs replace them letter for letter.
Values are log10 of the apparent Kd in nM; lower means stronger binding.
Replicates are averaged; those with no signal do not enter the mean.
An entry "nd" has no value in the source: the pair was not observed among the diploids in that replicate. This suggests poor binding but is not conclusive.

CDR-H1,CDR-H2,CDR-H3,"replicates, log10 nM","log10 Kd (nM), mean",control signals
GFSLDEYGIS,VIYADGLRQHYANAVK,GEGAGTFTT,nd nd nd nd nd nd,nd,1 of 18 (1.87)
GFNLMEYGIS,VIYADGTRTYYAGTVK,GELKGTFVD,nd nd nd nd nd nd,nd,0 of 18
GFNLDEYGIS,VIYADGYRRMYAQDVK,GMNSGFGGT,nd nd nd nd nd nd,nd,0 of 18
GFDLNEYGVS,VIYADGQRTQYTDKVK,GSFSADITN,nd 3.19 nd nd nd nd,3.19,1 of 18 (2.24)
GFDLDEQGIS,VIYADGQRKAYANAVK,GNQGNIART,nd nd nd nd nd nd,nd,2 of 18 (1.56)
GFDLDEYGIS,VIYADGMRTAYPDKVK,GRETDTNVV,nd nd 1.37 nd nd nd,1.37,1 of 18 (1.46)
GFDIEEMGIS,VIYADGARTVYTNSVK,GSFGDQMNV,nd nd nd nd nd nd,nd,0 of 18
GQNLEEYGIS,VIYADGKRNAYSNNVK,GQGGAVLVD,nd nd 0.90 nd nd nd,0.90,1 of 18 (2.22)
GFNLNEYGIS,VIYADGMRASYRNDVK,GQISGDFML,1.15 nd nd 2.12 nd nd,1.63,0 of 18
GFSLDEMGIS,VIYADGSRMFYQDNVK,GNNSVTFNE,nd nd nd nd nd nd,nd,1 of 18 (1.38)
GFDLGEYGVS,VIYADGLRAQYASKVK,GNFSGNFDK,nd nd nd nd nd nd,nd,0 of 18
GYDLDQYGIS,VIYADGMRSYYADSVK,GHEGGILYV,nd nd nd nd nd nd,nd,1 of 18 (2.19)
GQDLEEFGIS,VIYADGMRAAYADNVK,GVKNGNVTI,nd nd nd nd nd 1.50,1.50,0 of 18
GKSLDDYGIS,VIYADGQRTSYTETVK,GNNGGVFIY,nd nd nd nd nd nd,nd,0 of 18
GGDLEKYGIS,VIYADGKRSEYSNAVK,GQQAGTLLT,nd nd nd nd nd nd,nd,0 of 18
GFNLDEYGIS,VIYADGVRKAYANSVK,GKVHWFHLQ,nd nd nd nd nd nd,nd,1 of 18 (1.75)
GFDLEEYGIS,VIYADGKRSSVSNSVK,GQLGNAFDM,nd nd nd 4.15 2.51 nd,3.33,0 of 18
GFDLEEYGIS,VIYADGLRTMVLNSVK,GGLGQIFIV,nd nd nd nd nd nd,nd,0 of 18
GYDMEDYGIS,VIYADGSRQAYHDNFK,GELAGTFEM,nd nd nd nd nd nd,nd,0 of 18
GFDLEEWGIS,VIYADGSRTAYADNVK,GMSGADLMF,nd nd nd nd nd nd,nd,0 of 18
GFSLEEQGIS,VIYADGSRRAYAQDVK,GGHAVGFVV,-0.04 0.93 nd 0.94 0.52 0.32,0.53,0 of 18
GFNLDEYGIS,VIYADGGRVAYAQNVK,GLVGKGGDL,nd nd nd nd nd nd,nd,0 of 18
GFSLDEYGIS,VIYADGRRTMYCDNFK,GELGCTFVG,nd nd nd nd nd nd,nd,0 of 18
GFVLDEYGIS,VIYADGKRQVYQDKVK,GEGTGNFDT,nd nd nd nd nd nd,nd,0 of 18
GFNLDEYGVS,VIYADGFRVAYAESVK,GLQQFGFTI,nd nd nd nd nd nd,nd,0 of 18
GFDLNEYGVS,VIYADGFRTSYTDSVK,GFVVDLSMA,nd nd nd nd nd nd,nd,0 of 18
GFNLDEQGIS,VIYADGVRCSYAQSVK,GKSSGFIDT,nd nd nd nd nd nd,nd,1 of 18 (2.63)
GFEIQEFGIS,VIYADGIRTNYSQNVK,GTLAGTFTT,1.46 0.10 0.90 0.89 0.40 1.10,0.81,0 of 18
GFDLEEYGIS,VIYADGSRTSYQEKVK,GLVGGMLDV,nd nd nd nd 2.18 nd,2.18,0 of 18
GEDLDEYGIS,VIYADGRRVVYQDQVK,GELAGTFYQ,nd nd nd nd nd nd,nd,0 of 18
GDSLDEYGIS,VIYADGQRKAYMDTVK,GNGQGTLFD,nd nd nd nd nd nd,nd,0 of 18
GFNLDEYGIS,VIYADGQRTQYANDVK,GHYAGSMLS,nd nd nd nd nd nd,nd,0 of 18
GFDLDEYGIS,VIYADGVREAYIDSVK,GNWSGTMMY,nd nd nd nd nd nd,nd,0 of 18
GQNLDEYGIS,VIYADGMRKWYADSVK,GNMSVGLVA,1.24 1.50 1.41 0.90 1.26 0.96,1.21,0 of 18
GFGLNEYGIS,VIYADGQRTSYAQSVK,DANDIIQLV,nd nd nd nd nd nd,nd,0 of 18
GFDVEDYGIS,VIYADGRRQQYAQKFK,GTIAGTFVD,nd nd nd nd nd nd,nd,0 of 18
GFNLDEFGIS,VIYADGIRTAYLDSFK,GENVNAVDT,nd nd nd nd nd nd,nd,0 of 18
GFDLNEQGIS,VIYADGVRTEYQNQVK,GQIDGSFTF,nd nd nd nd nd nd,nd,0 of 18
GFNLDEYGIS,VIYADGRRTGYQDKFK,GANNFSVLM,nd nd nd nd nd nd,nd,0 of 18
GFKLDEYGIS,VIYADGIRTVYADDVK,GLLKGHTLT,nd nd nd 3.09 nd nd,3.09,1 of 18 (2.88)
GFDINEYGIS,VIYADGMRTGYQNQVK,GYMSGGLNQ,nd nd nd nd nd nd,nd,0 of 18
GFDLNEYGIS,VIYADGRRQMYANPVK,GHMGGIKLT,1.52 1.93 nd nd nd 1.95,1.80,1 of 18 (1.92)
GQNLDEYGIS,VIYADGMRKWYADDVK,GIMSAGVIT,nd nd nd nd nd nd,nd,0 of 18
KFDLEAYGIS,VIYADGVRRAYVDKVK,GQTGGMFDM,nd nd nd nd nd nd,nd,0 of 18

A selection of 6 entries from above:

CDR-H1,CDR-H2,CDR-H3,"replicates, log10 nM","log10 Kd (nM), mean",control signals
GQDLEEFGIS,VIYADGMRAAYADNVK,GVKNGNVTI,nd nd nd nd nd 1.50,1.50,0 of 18
GFDLEEWGIS,VIYADGSRTAYADNVK,GMSGADLMF,nd nd nd nd nd nd,nd,0 of 18
GQNLDEYGIS,VIYADGMRKWYADSVK,GNMSVGLVA,1.24 1.50 1.41 0.90 1.26 0.96,1.21,0 of 18
GFGLNEYGIS,VIYADGQRTSYAQSVK,DANDIIQLV,nd nd nd nd nd nd,nd,0 of 18
GFDLNEYGVS,VIYADGFRTSYTDSVK,GFVVDLSMA,nd nd nd nd nd nd,nd,0 of 18
GFDIEEMGIS,VIYADGARTVYTNSVK,GSFGDQMNV,nd nd nd nd nd nd,nd,0 of 18

The range of this assay differs from that of the first round, and the authors advise against merging the two.
The authors averaged sequences with at least three values out of six and counted those with two or fewer as poor binders.
Nonspecific signal, from three strains lacking the peptide, appeared in 1% of pairings of all heavy chain designs, centred on 2.08 (5% of these signals below 0.84); values are not corrected for it. For each scFv, signals with the empty controls are counted beside the result, with their mean in brackets.

Reference: Li et al. 2023, doi:10.1038/s41467-023-39022-2. File: FLAb, binding data.